{"sequences": {"note": "The chains behind the UniProt entries cited, without tags or fusion partners.", "UniProt P25103, whole entry": "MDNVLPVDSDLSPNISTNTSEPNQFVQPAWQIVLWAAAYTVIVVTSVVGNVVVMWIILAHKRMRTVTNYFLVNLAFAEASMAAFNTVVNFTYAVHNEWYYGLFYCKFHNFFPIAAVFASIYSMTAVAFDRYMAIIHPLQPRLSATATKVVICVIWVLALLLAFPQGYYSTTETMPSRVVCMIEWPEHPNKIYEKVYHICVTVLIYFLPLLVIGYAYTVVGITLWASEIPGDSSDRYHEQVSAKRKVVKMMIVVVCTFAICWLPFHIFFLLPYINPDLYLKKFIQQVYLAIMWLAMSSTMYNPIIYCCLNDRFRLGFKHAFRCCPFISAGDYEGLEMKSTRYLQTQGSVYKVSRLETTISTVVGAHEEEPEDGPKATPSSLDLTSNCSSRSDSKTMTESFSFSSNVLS"}, "source": "BindingDB's records for doi:10.1021/acs.jmedchem.1c00173", "about": "(Medicines For Malaria Venture, 2021)", "molecular_target": "Substance-P receptor (Homo sapiens, UniProt P25103)", "data": [{"smiles": "Cc1c(C2(c3ccc(C(F)(F)F)c(C#N)c3)CC2)c[nH]c1C(=O)NC(C)c1nc[nH]n1", "note": "(stereo in doubt; form 1)", "values": [{"measurement": "IC50", "result": 2000, "unit": "nM"}]}]}
